A word on the ΔTm: it is the shift of the melting midpoint relative to a reference.

The experiment concerns Calf thymus DNA. Put plainly: Binding affinity to calf thymus duplex-form DNA assessed as melting temperature at 1:5 compound/DNA ratio after 18 hrs. The experiment is classed as nucleic-acid assay. Particulars: Bos taurus.

`COc1cc2c(cc1O)N=C[C@@H]1CCCN1C2=O`: the ΔTm was 0.7 °C.

Values taken from ChEMBL document CHEMBL1177643, “Synthesis, DNA-binding ability and anticancer activity of benzothiazole/benzoxazole-pyrrolo[2,1-c][1,4]benzodiazepine conjugates” (Bioorg Med Chem, 2010).
